This assay is described as follows: Binding affinity (Ki) was determined towards Opioid receptors by competition with [3H]diprenorphine in rat whole brain membrane preparation.

One may read the Ki as the equilibrium dissociation constant of an inhibitor or competing ligand from its target. Read a high Ki as a looser hold on the target. In turn, `CO[C@]12CC[C@@]3(C[C@@H]1C(C)(C)O)[C@H]1Cc4ccc(O)c5c4[C@@]3(CCN1CC1CC1)[C@H]2O5` had a Ki of 0.22 nM.

Source of the values: ChEMBL document CHEMBL1124775 (J Med Chem, 1990).
